Target: DYRK1A (Homo sapiens (Human), UniProt Q13627)
Experiment: In vitro DYRK1A inhibition assay
Format: biochemical
Description: Briefly, specific kinase/substrate pairs along with required cofactors were prepared in reaction buffer; 20 mM Hepes (pH 7.5), 10 mM MgCl2, 1 mM EGTA, 0.02% Brij35, 0.02 mg/ml BSA, 0.1 mM Na3VO4, 2 mM DTT, 1% DMSO. Compounds were delivered into the reaction, followed ˜20 min later by addition of a mixture of ATP (Sigma) and 33P ATP (PerkinElmer) to a final concentration of 10 μM. […] IC50 values and curve fits were obtained using Prism (GraphPad Software). Kinome tree representations were prepared using Kinome Mapper (http://www.reactionbiology.com/apps/kinome/mapper/Launch Kinome.htm).
The 2×DYRK1A/Ser/Thr 18 mixture was prepared in 50 mM HEPES pH 7.5, 0.01% BRIJ-35, 10 mM MgCl2, 1 mM EGTA.

## CN1CCC(Nc2cncc(-c3cnc4[nH]cc(F)c4c3)n2)CC1 [Compound 142, 6-(3-fluoro-1H-pyrrolo[2,3-b]pyridin-5-yl)-N-(1-methylpiperidin-4-yl)pyrazin-2-amine]
  IC50: < 500 nM

Source: patent publication US9669028B2, “Substituted 5-(pyrazin-2-yl)-1H-pyrazolo [3, 4-B] pyridine and pyrazolo [3, 4-B] pyridine derivatives as protein kinase inhibitors” (Arrien Pharmaceuticals LLC, priority 2011, dated 2017)
